Values quoted from earlier work as cited in PMC8071534, “Discovery of Potential, Dual-Active Histamine H3 Receptor Ligands with Combined Antioxidant Properties” (Molecules, 2021).

Molecular target: hH3R
Parameters: method as in PMID 30957954, PMID 31362197, PMID 21615387, PMID 28861918
Conditions: reference ligands, Figure 1; cited from earlier work

## Clc1ccc(CCCOCCCN2CCCCC2)cc1 [Pitolisant, pitolisant]
  Ki: 0.3 to 5.3 nM
